High-throughput results from PubChem BioAssay.
An excerpt weighted towards active compounds, which were near 2.2% of everything screened.
miR-21 reporter: raises the signal of a miR-21 reporter; AID 2288; 340,000 tested, under 10 active; Potency, µM (doses to about 38.3 µM), inactives show at the top dose reporter change, positive = more light; HeLa miR-21 FLuc reporter, luciferase, 48 h; active = well fitted rising curve with a large enough effect; inconclusive = small, poorly fitted or top-dose-only effect; inactive = no such curve, though single readings can be large or run the other way;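 note: % of control where 0% means no effect; miR-21 action dims this reporter so a rising signal means less miR-21 action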
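HeLa cells endogenously expressing miR-21, stably carrying CMV-driven firefly luciferase with a downstream miR-21 binding site, 2000 cells/well. Titrations up to approximately 40 uM, 48 hours; luciferase luminescence read.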
A549 viability: A549 cytotoxicity, counter-screen for Nrf2 inhibitors. AID 504648. A549 ARE-Fluc cells, CellTiter-Fluor viability, 18-24 h. Potency, µM (doses to about 46 µM), without a hit: top-dose activity change, negative = cytotoxicity, most hits filed as inhibitors. actives 0.16% (n = 390,000); also: potency is read from the fitted curve at half-maximal effect; % is scaled to controls: 0 for no effect and ±100 for the full control effect
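Cytotoxicity counterscreen: CellTiter-Fluor fluorescence was measured in A549 ARE_Fluc cells after 18-24 h of compound exposure in a concentration series. The subsequent BugLite luminescent read reports ARE-luciferase activity.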
GALK inh: blocks human galactokinase activity | P51570 | Purified GALK, Kinase-Glo residual ATP luminescence | Potency, µM (series often up to 57.5 µM), inactives show at the highest dose activity change, negative = inhibition, most hits filed as inhibitors | actives 0.007% (n = 270,000) | AID 1868; also: potency is read from the fitted curve at half-maximal effect; % is scaled to controls: 0 for no effect and ±100 for the full control effect
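Compounds were pin-transferred into ATP buffer (35 uM final), then GALK plus galactose (5 nM, 100 uM final) was added. After 1 h at room temperature, Kinase-Glo Plus was added and luminescence read after 10 min.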
Nrf2 activator: Nrf2 pathway activation; AREc32 ARE-luciferase reporter (MCF7-derived line), luminescence, 24 h; Potency, µM (top dose mostly 46.1 µM), inactives show at the top dose activation, usual class: activators; actives 0.31% (n = 410,000); AID 624171; also: potency is read from the fitted curve at half-maximal effect; % of control where 0% means no effect; nearly all actives have a fitted effect of over 65% in size
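Reporter line AREc32 (ARE-Fluc), seeded overnight in OPTI-MEM with 5% FBS; compound pin-transferred, 24 hr at 37 deg C, 5% CO2; luminescent read-out.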
PI4K2A block: inhibitors of human PI4K2A | actives 0.13% (n = 420,000) | activity change, negative = inhibition, % at 76.9 µM | Q9BTU6 | purified PI4K2A, ADP-Glo luminescence, 1 h; hits give low values; in the data active = activity change below about -50%; inconclusive = mostly about -30% to -49%;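 also: -100% = wells without enzyme as full effect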
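PI4K2A activity was measured by ADP-Glo luminescence: enzyme (4 ug/mL stock) and phosphatidylinositol (1.2 mM stock) in Tris pH 7.5/MgCl2/EGTA/Triton X-100 buffer were reacted with ATP (300 microM stock) for one hour at ambient temperature.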
Nrf2 block: Nrf2 pathway inhibition; actives 2.1% (n = 360,000); A549 ARE-Fluc reporter, luciferase luminescence, 18-24 h; Potency, µM (doses to about 46 µM), for the others: at the top dose activity change, negative = inhibition, actives largely listed as inhibitors; AID 504444; also: potency is read from the fitted curve at half-maximal effect; % is scaled to controls: 0 for no effect and ±100 for the full control effect; nearly all actives have a fitted effect of over 60% in size
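Nrf2 function is reported as luminescence of an ARE-controlled luciferase in A549 cells. Compounds were tested at several concentrations, and a CellTiter-Fluor read on the same wells flagged cytotoxicity.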
The depositor's hits bear a star; ? = inconclusive; . = no result; [ ] = remark or other dose. Unless noted, calls follow the shape of the dose curve; as a rule, active = well fitted curve in the direction sought with a large enough effect; inconclusive = small, poorly fitted or top-dose-only effect, or another doubt; inactive = no such curve, though single readings can be large; an effect the other way counts as inactive or inconclusive.

Screens by letter: A = miR-21 reporter; B = A549 viability; C = GALK inh; D = Nrf2 activator; E = PI4K2A block; F = Nrf2 block
Cc1ccc(/C(N)=N/OC(=O)c2cccs2)cc1
  A: -58% | B: -2% | C: 0% | D: ? | E: -11 | F: ?
Cc1cccc(/C(N)=N/OC(=O)c2cccs2)c1
  A: -48% | B: -11% | C: 16% | D: 14µM* | E: ? | F: ?
N/C(=N\OC(=O)c1cccs1)c1ccccc1
  A: -59% | B: 5% | C: 4% | D: 10µM* | E: -23 | F: ?
COc1ccc(/C(N)=N/OC(=O)c2cccs2)cc1OC
  A: 2% | B: -12% | C: -2% | D: ? | E: 6 | F: ?
O=C(CSc1nnc(SCc2cccc3ccccc23)s1)c1ccc(F)cc1
  A: . | B: . | C: . | D: . | E: 6 | F: .
CN(C)c1cccc(S(=O)(=O)N2CCN(S(=O)(=O)c3ccc4c(c3)OCCO4)CC2)c1
  A: . | B: -3% | C: . | D: . | E: . | F: 4%
COc1ccc(S(=O)(=O)c2cnc3ccccc3n2)cc1
  A: 9% | B: -3% | C: 11% | D: 18µM* | E: 6 | F: -3%
COc1cccc2c(NCc3ccccc3)nc(-n3c(N)nc4ccccc43)nc12
  A: . | B: . | C: . | D: . | E: 0 | F: .
Cc1ccc2onc(CC(=O)N3CCN(c4ccc(F)cc4)CC3)c2c1
  A: 12% | B: ? | C: . | D: 0% | E: 0 | F: 16µM*
Cc1cc(Nc2cccc(Cl)c2)c2ccccc2n1
  A: ? | B: ? | C: -3% | D: 0% | E: 3 | F: 21µM*
Cc1cc(NC(=O)Cc2ccccc2)c2ccccc2n1
  A: 21% | B: -2% | C: -1% | D: 1% | E: 7 | F: 9.2µM*
O=C(Cn1c(C(F)(F)F)nc2ccccc21)c1ccccc1
  A: 5% | B: -7% | C: 3% | D: 0% | E: -1 | F: 21µM*
O=C(Cn1c(C(F)(F)F)nc2ccccc21)c1ccc(Cl)cc1
  A: -5% | B: -12%[1.84 µM] | C: -8% | D: -1% | E: 3 | F: ?
CCN(CC)S(=O)(=O)c1ccc(C)c(NC(=S)N2CCN(c3ccccn3)CC2)c1
  A: 21% | B: 4% | C: 11% | D: 0% | E: 2 | F: ?
CCN(CC)S(=O)(=O)c1ccc(C)c(NC(=S)N2CCN(C/C=C/c3ccccc3)CC2)c1
  A: 21% | B: -16% | C: 9% | D: 1% | E: -2 | F: 12µM*
Fc1ccc(NC(=S)N2CCN(C/C=C/c3ccccc3)CC2)c(F)c1
  A: 11% | B: -30% | C: 2% | D: 6% | E: -12 | F: 21µM*
O=C(NC1CCCCN(Cc2cccc(Cl)c2)C1=O)c1ccc(COc2ccccc2)cc1 (stereo not drawn)
  A: . | B: . | C: . | D: . | E: 3 | F: .
CCOC(=O)CCc1cc(F)c(S(=O)(=O)N2CCN(S(=O)(=O)c3ccc4c(c3)OCCO4)CC2)cc1F
  A: . | B: -2% | C: . | D: . | E: . | F: 3%
Cc1ccc(Nc2c([N+](=O)[O-])ccc3nonc23)c(C)c1
  A: -8% | B: -5% | C: 2% | D: 2% | E: -3 | F: 0%
Cc1ccc(S(=O)c2ccc([N+](=O)[O-])c3nonc23)cc1 (stereo not drawn)
  A: . | B: . | C: . | D: 18µM* | E: -17 | F: .
CC1CCCCN1C(=O)COC(=O)c1ccc(S(C)(=O)=O)c([N+](=O)[O-])c1 (stereo not drawn)
  A: . | B: -5% | C: . | D: . | E: . | F: -3%
C=CCN1C(=O)[C@@H](CC(=O)NCc2ccccc2)[C@]2(C(=O)OCC)CCCCC/C=C/12
  A: . | B: . | C: . | D: . | E: 7 | F: .
CCOC(=O)CC[C@@]1(C(=O)OCC)C[C@@H](CC(=O)NCc2cccs2)C(=O)N2CCCC=C21
  A: . | B: . | C: . | D: . | E: 3 | F: .
CC1CC(NC(=O)c2cc3c(=O)n4ccccc4nc3n2C)CC(C)(C)C1 (stereo not drawn)
  A: -4% | B: 16% | C: 7% | D: 0% | E: 1 | F: 21µM*
Oc1ccc(COc2ccccc2Cl)c2cccnc12
  A: . | B: -5% | C: . | D: . | E: . | F: 18µM*

The closing 3 compounds of the part before come first, to join the parts.
Under each structure – miR-21 reporter	A549 viability	GALK inh	Nrf2 activator	PI4K2A block	Nrf2 block
CCOC(=O)CC[C@@]1(C(=O)OCC)C[C@@H](CC(=O)NCc2cccs2)C(=O)N2CCCC=C21
  .	.	.	.	3	.
CC1CC(NC(=O)c2cc3c(=O)n4ccccc4nc3n2C)CC(C)(C)C1 (stereo not drawn)
  -4%	16%	7%	0%	1	21µM*
Oc1ccc(COc2ccccc2Cl)c2cccnc12
  .	-5%	.	.	.	18µM*
COc1cc2cc(C(=O)N3CCOCC3)cc(-c3ccc(C)cc3)c2cc1OC
  7%	?	.	0%	-3	18µM*
COc1cc(OC)cc(-c2c(-c3cccs3)c3cc(-c4cnc(N)nc4)ccc3n2C)c1
  .	-7%	.	-1%	-4	21µM*
COc1cc(OC)cc(-c2c(-c3cccs3)c3cc(-c4ccc(OC)c(OC)c4)ccc3n2C)c1
  .	4%	.	1%	-3	-11%
COC(=O)C1=C(C)NC(=O)CC1c1cc2c(cc1Br)OCO2 (stereo not drawn)
  -5%	1%	6%	2%	-2	-1%
CC1=C(C(=O)OC2CCCCCCC2)C(c2cc3c(cc2Br)OCO3)CC(=O)N1 (stereo not drawn)
  -1%	?	0%	0%	4	21µM*
O=C(O)C[C@@H]1C(=O)O[C@@H]2C(COC(=O)c3cc(O)c(O)c(O)c3)O[C@@H](OC(=O)c3cc(O)c(O)c(O)c3)[C@@H](OC(=O)c3cc(O)c(O)c4c3[C@H]1[C@H](O)C(=O)O4)[C@H]2OC(=O)c1cc(O)c(O)c(O)c1 (stereo partly drawn)
  12%	.	14µM*	.	.	.
CCOC(=O)C(=Cc1cc(=O)c(OC)co1)C(=O)OCC
  ?	15µM*	.	-3%	5	9.2µM*
O=C(COc1ccccc1)N/N=C/c1ccc([N+](=O)[O-])o1
  ?	?	-1%	10%	-9	13µM*
O=C(CSc1ccc(Cl)cc1)N/N=C/c1ccc([N+](=O)[O-])o1
  25%	?	-5%	5%	1	23µM*
O=C(CNc1ccc2ccccc2c1)N/N=C/c1ccc([N+](=O)[O-])o1
  14%	-3%	0%	16%	-1	-5%
Cc1ccc(OCC(=O)N/N=C\c2ccc(C)o2)c([N+](=O)[O-])c1
  -3%	3%	-1%	7%	4	5%
O=C(COc1ccccc1[N+](=O)[O-])N/N=C/c1ccccn1
  -50%	-8%	-2%	11µM*	-1	4%
Cc1ccc(OCC(=O)N/N=C/c2ccc([N+](=O)[O-])o2)cc1
  4%	-25%	0%	4%	-7	21µM*
CCOC(=O)[C@]12CCCCC/C=C\1N(CCc1ccc(Cl)cc1)C(=O)[C@H]2CC(=O)N1CCN(C(=O)c2ccco2)CC1
  .	.	.	.	-4	.
Cc1ccc(C2=C(c3ccc([N+](=O)[O-])cc3)C(=O)OC2)cc1C
  10%	-17%	2%	3%	-1	23µM*
COc1ccc(C2=C(c3ccc([N+](=O)[O-])cc3)C(=O)OC2)cc1
  3%	-1%	0%	0%	-6	-2%
O=C(CCCc1nc(-c2ccc(Cl)cc2)no1)Nc1cccnc1
  22%	.	-3%	-1%	1	10µM*
Cc1cccc(-c2noc(CCCC(=O)Nc3cccnc3)n2)c1
  14%	-4%	0%	-1%	1	?
FC(F)(F)c1ccc2nc(CNc3nc(N4CCOCC4)nc4c3ncn4-c3ccsc3)[nH]c2c1
  .	.	.	.	-3	.
CCn1cnc2c(Nc3ccc(CC(=O)N=C(N)N)cc3)nc(C#N)nc21
  .	-2%	.	.	.	-20%

Part of the list above, limited to Nrf2 activator and A549 viability:
mol | Nrf2 activator | A549 viability
O=C(Cn1c(C(F)(F)F)nc2ccccc21)c1ccc(Cl)cc1 | -1% | -12%[1.84 µM]
CCN(CC)S(=O)(=O)c1ccc(C)c(NC(=S)N2CCN(c3ccccn3)CC2)c1 | 0% | 4%
